Reference: PMC3852005 (2013)

T1: FxFG Nup repeat peptide (also: chloride salt)
T1 chain: DSGFSFGSK


Target: T1, FxFG Nup repeat peptide
Test: ITC

Kd [µM]	Binder
115	G3BP1 NTF2-like domain 1-139 (protein) MVMEKPSPLLVGREFVRQYYTLLNQAPDMLHRFYGKNSSYVHGGLDSNGKPADAVYGQKEIHRKVMSQNFTNCHTKIRHVDAHATLNDGVVVQVMGLLSNNNQALRRFMQTFVLAPEGSVANKFYVHNDIFRYQDEVFG
670	G3BP1 NTF2-like domain 1-139 (protein) MVMEKPSPLLVGREAVRQYYTLLNQAPDMLHRFYGKNSSYVHGGLDSNGKPADAVYGQKEIHRKVMSQNFTNCHTKIRHVDAHATLNDGVVVQVMGLLSNNNQALRRFMQTFVLAPEGSVANKFYVHNDIFRYQDEVFG

Where no end group is shown, it is not given here.
